These results are taken from article PMC10439158, “The net electrostatic potential and hydration of ABCG2 affect substrate transport” (Nature Communications, 2023).

Chains of the proteins cited; added tags and fusions are not shown. Lines headed by an entry give the natural chain unless they say otherwise; changes in a name come on top.
UniProt Q9UNQ0: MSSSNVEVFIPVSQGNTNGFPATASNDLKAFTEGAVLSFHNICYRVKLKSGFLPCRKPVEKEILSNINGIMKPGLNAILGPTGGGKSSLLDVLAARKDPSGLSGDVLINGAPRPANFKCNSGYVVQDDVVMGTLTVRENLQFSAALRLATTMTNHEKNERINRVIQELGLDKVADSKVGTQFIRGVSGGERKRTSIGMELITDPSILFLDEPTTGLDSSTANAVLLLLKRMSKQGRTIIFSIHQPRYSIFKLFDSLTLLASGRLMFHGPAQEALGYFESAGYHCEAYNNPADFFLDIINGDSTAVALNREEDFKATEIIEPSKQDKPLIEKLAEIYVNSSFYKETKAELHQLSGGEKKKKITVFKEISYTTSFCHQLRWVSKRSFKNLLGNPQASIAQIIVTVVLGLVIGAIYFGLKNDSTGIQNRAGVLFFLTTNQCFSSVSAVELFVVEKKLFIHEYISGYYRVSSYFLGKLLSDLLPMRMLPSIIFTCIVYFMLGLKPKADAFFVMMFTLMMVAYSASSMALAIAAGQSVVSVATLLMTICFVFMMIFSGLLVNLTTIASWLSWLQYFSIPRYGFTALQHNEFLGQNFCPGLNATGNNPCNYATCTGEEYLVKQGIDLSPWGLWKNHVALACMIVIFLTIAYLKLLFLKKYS

For this experiment, the target named is ABCG2 (Homo sapiens, UniProt Q9UNQ0). Briefly: cell-based. Particulars: 0.5 uM Hoechst 33342 substrate, 2 h, 37 °C; read-out: IC50 for transport inhibition in WT. Set-up: full-length ABCG2-WT in MEF cells; species or system Abcg2-KO MEFs expressing human ABCG2-WT; Inhibition of ABCG2-mediated Hoechst 33342 efflux; intracellular Hoechst 33342 fluorescence accumulation, normalized to vector control.

The term IC50 denotes the concentration that inhibits the measured activity by half. Take `COc1cc2ncnc(Nc3ccc(F)c(Cl)c3)c2cc1OCCCN1CCOCC1` [gefitinib]: the IC50 worked out at 510 nM.
